Test results reported in patent publication US20080113344A1, “Methods and Compositions for the Response Prediction of Malignant Neoplasia to Treatment” (priority 2003, published 2008).

How the values were obtained:
[1] = test system: tumor cells; assay: Treating tumor cells with agents blocking EGFR/Her-2/neu signaling, keratin expression; format: cell-based; settings: keratins being part of the ARCHEONs
[2] = test system: EGFR signalling; settings: clinical studies; cited from earlier work
[3] = anthracyclin pretreated patients, subsequent Herceptin based regimen; cited from earlier work

Row | Compound | expression of specific keratins in treated tumor cells [1] | skin diseases under treatment [2] | heart toxicity events [3]
1 | COc1cc2ncnc(Nc3ccc(F)c(Cl)c3)c2cc1OCCCN1CCOCC1 [Iressa] | shifts the expression of specific keratins | skin diseases (e.g. acne-like rash) of grade I, II or III | –
2 | Cetuximab: antibody-treatment blocking EGFR signalling | shifts the expression of specific keratins | skin diseases (e.g. acne-like rash) of grade I, II or III | –
3 | Herceptin: Gene specific antibodies raised against HER-2/neu | shifts the expression of specific keratins | – | significantly increased heart toxicity events
